In ChEMBL document CHEMBL1764947, “Symmetric double-headed aminopyridines, a novel strategy for potent and membrane-permeable inhibitors of neuronal nitric oxide synthase” (J Med Chem, 2011) one finds IC50 and Ratio Ki data, which are given here for three molecules.

The chains behind the UniProt entries cited, without tags or fusion partners.
UniProt P29475, whole entry: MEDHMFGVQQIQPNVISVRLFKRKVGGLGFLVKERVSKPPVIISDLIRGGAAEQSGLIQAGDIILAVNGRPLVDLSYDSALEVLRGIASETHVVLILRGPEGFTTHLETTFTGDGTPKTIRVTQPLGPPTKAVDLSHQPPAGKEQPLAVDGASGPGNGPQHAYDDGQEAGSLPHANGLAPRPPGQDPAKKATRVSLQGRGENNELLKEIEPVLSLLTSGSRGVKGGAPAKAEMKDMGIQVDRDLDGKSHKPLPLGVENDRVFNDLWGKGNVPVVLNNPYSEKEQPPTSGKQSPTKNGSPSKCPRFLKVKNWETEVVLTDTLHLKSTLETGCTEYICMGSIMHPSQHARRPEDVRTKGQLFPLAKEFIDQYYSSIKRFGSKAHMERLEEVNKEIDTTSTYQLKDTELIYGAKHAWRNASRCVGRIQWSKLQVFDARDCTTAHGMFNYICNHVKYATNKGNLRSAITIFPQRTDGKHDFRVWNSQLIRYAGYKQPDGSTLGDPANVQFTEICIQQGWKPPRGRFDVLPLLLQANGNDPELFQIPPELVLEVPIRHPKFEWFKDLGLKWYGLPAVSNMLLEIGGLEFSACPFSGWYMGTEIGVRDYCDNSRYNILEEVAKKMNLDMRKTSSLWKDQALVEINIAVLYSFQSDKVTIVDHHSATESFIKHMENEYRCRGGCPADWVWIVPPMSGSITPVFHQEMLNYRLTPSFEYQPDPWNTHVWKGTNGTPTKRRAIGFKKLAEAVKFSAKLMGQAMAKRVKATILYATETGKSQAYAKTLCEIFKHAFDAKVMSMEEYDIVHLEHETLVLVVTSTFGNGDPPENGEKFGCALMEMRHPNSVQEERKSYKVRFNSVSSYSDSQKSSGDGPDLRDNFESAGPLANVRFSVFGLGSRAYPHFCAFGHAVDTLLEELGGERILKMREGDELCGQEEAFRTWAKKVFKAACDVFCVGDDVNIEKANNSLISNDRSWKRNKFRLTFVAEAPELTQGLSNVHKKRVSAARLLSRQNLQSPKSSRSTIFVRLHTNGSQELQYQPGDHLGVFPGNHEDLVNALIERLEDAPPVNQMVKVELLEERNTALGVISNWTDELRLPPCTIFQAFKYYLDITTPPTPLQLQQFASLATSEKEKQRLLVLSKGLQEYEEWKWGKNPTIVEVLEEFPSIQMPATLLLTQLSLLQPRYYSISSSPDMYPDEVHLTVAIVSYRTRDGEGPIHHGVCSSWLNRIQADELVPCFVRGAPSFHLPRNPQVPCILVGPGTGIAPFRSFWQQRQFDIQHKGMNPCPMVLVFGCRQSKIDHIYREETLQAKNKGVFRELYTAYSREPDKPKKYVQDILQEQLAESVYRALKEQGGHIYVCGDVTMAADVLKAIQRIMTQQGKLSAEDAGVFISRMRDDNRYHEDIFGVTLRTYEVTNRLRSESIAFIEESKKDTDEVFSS

The target of one assay is Nitric oxide synthase 1 (Homo sapiens, UniProt P29475). Kind of assay: Inhibition of nNOS expressed in human 293T cells assessed as nitrite formation after 8 hrs by Griess reaction. In kind it is cell-based.
A short description of assay [1]: Selectivity ratio of Ki for bovine recombinant eNOS to Ki for rat recombinant nNOS.
A short description of assay [2]: Selectivity ratio of Ki for murine macrophage recombinant iNOS to Ki for rat recombinant nNOS.

On to `Cc1cc(N)nc(CCc2cncc(CCc3cc(C)cc(N)n3)c2)c1`, for which the IC50 on Nitric oxide synthase 1 amounted to 5 µM.

Turning to `Cc1cc(N)nc(CCc2cccc(CCc3cc(C)nc(N)c3)n2)c1`, the Ratio Ki in assay [1] was determined as 102; in assay [2] it was 64.

In the case of `Cc1cc(N)nc(CCc2cccc(CCc3cc(C)cc(N)n3)c2)c1`, the results for the Ratio Ki in assay [1] and in assay [2] were 28.8 and 13.9, respectively.

As usually defined, the IC50 is the point on the concentration scale where inhibition reaches its midpoint.
